In US20230174988A1, “METHODS FOR INDUCING BILE ACID SULFOTRANSFERASE SULT2A FOR TREATING METABOLIC DISORDERS” (priority 2020, published 2023):

Target: T1, TGR5 (Homo sapiens, UniProt Q8TDU6)
T1 sequence (Q8TDU6 1-330): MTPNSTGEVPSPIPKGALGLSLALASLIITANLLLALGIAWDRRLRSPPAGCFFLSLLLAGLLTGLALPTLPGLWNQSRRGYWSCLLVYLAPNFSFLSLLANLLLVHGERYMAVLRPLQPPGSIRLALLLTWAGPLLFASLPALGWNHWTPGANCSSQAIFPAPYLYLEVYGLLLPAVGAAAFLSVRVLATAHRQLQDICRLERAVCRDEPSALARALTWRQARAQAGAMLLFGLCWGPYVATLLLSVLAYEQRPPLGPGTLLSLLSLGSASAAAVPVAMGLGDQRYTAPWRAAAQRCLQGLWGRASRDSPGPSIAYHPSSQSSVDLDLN
Assay: TGR5 activation in L-cells, dose response curve

With `C[C@H](CCC(=O)O)[C@H]1CC[C@H]2[C@@H]3[C@H](OS(=O)(=O)O)C[C@@H]4C[C@H](O)CC[C@]4(C)[C@H]3C[C@H](O)[C@]12C` [CA7S, cholic acid 7-sulfate] the EC50 was 13 nM.
